Test results as given in patent US8846929B2, “Substituted-quinoxaline-type piperidine compounds and the uses thereof” (priority 2007, dated 2014).

By UniProt entry, the sequences of proteins in these tests, tags left out. Where a name states a change or a piece, a line headed by the entry shows the natural chain unless it says otherwise.
UniProt P41145: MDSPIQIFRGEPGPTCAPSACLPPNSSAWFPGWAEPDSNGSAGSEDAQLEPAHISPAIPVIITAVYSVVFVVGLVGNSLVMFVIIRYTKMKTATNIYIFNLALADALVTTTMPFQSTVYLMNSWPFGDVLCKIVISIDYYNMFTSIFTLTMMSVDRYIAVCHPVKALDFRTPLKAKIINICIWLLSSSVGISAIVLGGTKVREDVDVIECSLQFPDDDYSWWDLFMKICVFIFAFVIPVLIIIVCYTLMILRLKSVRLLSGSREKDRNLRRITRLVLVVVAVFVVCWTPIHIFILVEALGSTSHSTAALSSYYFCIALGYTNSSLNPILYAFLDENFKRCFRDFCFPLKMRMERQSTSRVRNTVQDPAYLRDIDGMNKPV
UniProt P41146: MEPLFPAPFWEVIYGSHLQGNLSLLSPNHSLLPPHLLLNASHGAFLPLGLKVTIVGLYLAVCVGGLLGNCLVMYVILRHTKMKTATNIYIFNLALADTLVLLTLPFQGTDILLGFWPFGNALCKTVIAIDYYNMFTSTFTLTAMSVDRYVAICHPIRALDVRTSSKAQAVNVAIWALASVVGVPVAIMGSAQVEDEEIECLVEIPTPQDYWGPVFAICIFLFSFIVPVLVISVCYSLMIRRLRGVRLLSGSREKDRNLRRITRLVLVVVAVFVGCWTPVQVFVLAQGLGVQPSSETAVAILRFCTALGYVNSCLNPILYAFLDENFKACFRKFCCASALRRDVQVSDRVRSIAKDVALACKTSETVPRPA
UniProt P35372: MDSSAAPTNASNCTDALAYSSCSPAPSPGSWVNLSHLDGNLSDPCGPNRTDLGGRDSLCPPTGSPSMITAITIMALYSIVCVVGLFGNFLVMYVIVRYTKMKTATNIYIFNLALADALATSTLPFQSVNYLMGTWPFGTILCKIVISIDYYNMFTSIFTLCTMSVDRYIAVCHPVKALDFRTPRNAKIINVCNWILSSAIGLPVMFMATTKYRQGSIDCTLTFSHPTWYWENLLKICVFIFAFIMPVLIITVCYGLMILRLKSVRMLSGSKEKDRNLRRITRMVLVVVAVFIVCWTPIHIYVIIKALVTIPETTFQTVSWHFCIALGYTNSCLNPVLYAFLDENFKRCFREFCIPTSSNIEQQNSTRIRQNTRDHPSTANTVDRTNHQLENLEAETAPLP
UniProt P41143: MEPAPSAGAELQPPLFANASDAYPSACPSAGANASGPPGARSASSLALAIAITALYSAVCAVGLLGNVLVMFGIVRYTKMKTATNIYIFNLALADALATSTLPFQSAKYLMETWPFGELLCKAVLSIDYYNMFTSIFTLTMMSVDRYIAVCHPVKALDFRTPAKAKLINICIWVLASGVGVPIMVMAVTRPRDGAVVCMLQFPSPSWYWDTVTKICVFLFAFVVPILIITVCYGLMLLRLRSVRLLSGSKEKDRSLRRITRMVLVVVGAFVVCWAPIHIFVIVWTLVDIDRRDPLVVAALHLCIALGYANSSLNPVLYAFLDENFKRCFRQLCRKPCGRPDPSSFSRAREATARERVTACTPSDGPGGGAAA

Tests used:
kappa opioid receptor [1] = biological target: T1, kappa opioid receptor (Homo sapiens (Human), UniProt P41145); assay: In vitro kappa-opioid receptor binding assay ([3H]-U69,593 displacement); details: read-out: Ki [Average ± Std Deviation] Opioid Receptor Kappa; membranes from recombinant HEK-293 cells
[2] = biological target: T2, human opioid receptor-like (ORL-1) (Homo sapiens (Human), UniProt P41146); assay: In vitro ORL-1 receptor [35S]GTPγS functional assay; format: biochemical; details: mean ± SEM; for EC50: read-out: GTPγS ORL-1 EC50
[3] = biological target: T2, human opioid receptor-like (ORL-1); assay: In vitro ORL-1 receptor binding assay ([3H]-nociceptin displacement); details: read-out: Ki [Average ± Std Deviation] ORL-1; membranes from recombinant HEK-293 cells
μ-opioid receptor = μ-opioid receptor (Homo sapiens (Human), UniProt P35372); assay: In vitro mu-opioid receptor binding assay ([3H]-diprenorphine displacement); details: read-out: Ki [Average ± Std Deviation] Opioid Receptor Mu
delta opioid receptor = delta opioid receptor (Homo sapiens (Human), UniProt P41143); assay: In vitro delta-opioid receptor binding assay ([3H]-Naltrindole displacement); details: read-out: Ki [Average ± Std Deviation] Opioid Receptor Delta; recombinant receptor expressed in CHO-K1 cells
kappa opioid receptor [4] = biological target: T1, kappa opioid receptor; assay: In vitro kappa-opioid receptor [35S]GTPγS functional assay; format: biochemical; details: mean ± SEM; for EC50: read-out: GTPγS Opioid Receptor Kappa EC50

Substance	Ki (kappa opioid receptor [1]) [nM]	GTPγS ORL-1 Emax [2] [%]	Ki [3] [nM]	Ki (μ-opioid receptor) [nM]	Ki (delta opioid receptor) [nM]	EC50 [2] [nM]	GTPγS Opioid Receptor Kappa Emax (kappa opioid receptor [4]) [%]	EC50 (kappa opioid receptor [4]) [nM]
1-(4-((endo)-8-cyclooctyl-8-azabicyclo[3.2.1]octan-3-yl)-3-oxo-3,4-dihydroquinoxalin-2-yl)-3-hydroxypyrrolidine-3-carboxylic acid	1650	40.3 ± 2.3	46.1	5200	8880	–	–	–
2,2′-(2-(4-((endo)-8-cyclooctyl-8-azabicyclo[3.2.1]octan-3-yl)-3-oxo-3,4-dihydroquinoxalin-2-ylamino)ethylazanediyl)diacetic acid	3320	101.3	4.4	1080	> 20000	53.6	–	–
2-(1-(4-((endo)-8-cyclooctyl-8-azabicyclo[3.2.1]octan-3-yl)-3-oxo-3,4-dihydroquinoxalin-2-yl)piperidin-4-yl)acetic acid	–	50.3 ± 4.4	–	4700	1300	–	–	–
2-(1-(4-((endo)-8-cyclooctyl-8-azabicyclo[3.2.1]octan-3-yl)-3-oxo-3,4-dihydroquinoxalin-2-yl)pyrrolidin-3-yl)acetic acid	1200	73 ± 2	52.1	–	24100	924	–	–
2-(2-(4-((endo)-8-cyclooctyl-8-azabicyclo[3.2.1]octan-3-yl)-3-oxo-3,4-dihydroquinoxalin-2-ylamino)acetamido)acetic acid	1490	67 ± 1.5	60.4	1990	37400	956	–	–
2-(2-(4-((endo)-8-cyclooctyl-8-azabicyclo[3.2.1]octan-3-yl)-3-oxo-3,4-dihydroquinoxaline-2-carboxamido)thiazol-4-yl)acetic acid	–	29 ± 3	144	–	–	503	–	–
2-(4-(4-((endo)-8-cyclooctyl-8-azabicyclo[3.2.1]octan-3-yl)-3-oxo-3,4-dihydroquinoxalin-2-yl)-2-oxopiperazin-1-yl)acetic acid	1360	84 ± 1.2	44.8	1600	2740	1300	–	–
2-(4-((endo)-8-cyclooctyl-8-azabicyclo[3.2.1]octan-3-yl)-3-oxo-3,4-dihydroquinoxalin-2-ylamino)benzoic acid	–	–	538	–	–	–	–	–
2-(4-((exo)-8-cyclooctyl-8-azabicyclo[3.2.1]octan-3-yl)-3-oxo-3,4-dihydroquinoxalin-2-ylamino)acetic acid	–	–	1720	–	–	–	–	–
2-((2-amino-2-oxoethyl)(2-(4-((endo)-8-cyclooctyl-8-azabicyclo[3.2.1]octan-3-yl)-3-oxo-3,4-dihydroquinoxalin-2-ylamino)ethyl)amino)acetic acid	740	80.3 ± 3.8	16.8	–	> 20000	277	9.3 ± 1.3	4460
2-((4-((endo)-8-cyclooctyl-8-azabicyclo[3.2.1]octan-3-yl)-3-oxo-3,4-dihydroquinoxalin-2-yl)(2-hydroxyethyl)amino)acetic acid	2030	–	61.7	11900	548000	–	–	–
3-(4-((endo)-8-cyclooctyl-8-azabicyclo[3.2.1]octan-3-yl)-3-oxo-3,4-dihydroquinoxalin-2-ylamino)isonicotinic acid	64.2	58 ± 1.2	502	–	32200	212	10.0 ± 1.2	13400
3-(4-((endo)-8-cyclooctyl-8-azabicyclo[3.2.1]octan-3-yl)-3-oxo-3,4-dihydroquinoxaline-2-carboxamido)propanoic acid	–	–	382	–	–	–	–	–
3-oxo-4-(1-(1-propylcyclooctyl)piperidin-4-yl)-3,4-dihydroquinoxaline-2-carboxylate	3270	–	45.5	57800	538000	–	–	–
3-oxo-4-((endo)-8-(pentan-3-yl)-8-azabicyclo[3.2.1]octan-3-yl)-3,4-dihydroquinoxaline-2-carboxylic acid	–	–	1830	–	–	–	–	–
4-(1-(1-ethylcyclooctyl)piperidin-4-yl)-3-oxo-3,4-dihydroquinoxaline-2-carboxylate	2470	–	30.2	16300	524000	–	–	–
4-((4-((endo)-8-cyclooctyl-8-azabicyclo[3.2.1]octan-3-yl)-3-yl)-3-oxo-3,4-dihydroquinoxalin-2-ylamino)methyl)benzoic acid	–	–	456	–	–	–	–	–
4-((endo)-8-(1,2-dihydroacenaphthylen-1-yl)-8-azabicyclo[3.2.1]octan-3-yl)-3-oxo-3,4-dihydroquinoxaline-2-carboxylic acid	1600	99.3 ± 1.3	52.1	2660	–	1020	–	–
4-((endo)-8-(2,3-dihydro-1H-inden-2-yl)-8-azabicyclo[3.2.1]octan-3-yl)-3-oxo-3,4-dihydroquinoxaline-2-carboxylic acid	–	–	596	–	–	–	–	–

Substance	Ki (kappa opioid receptor [1]) [nM]	GTPγS ORL-1 Emax [2] [%]	Ki [3] [nM]	Ki (μ-opioid receptor) [nM]	Ki (delta opioid receptor) [nM]	EC50 [2] [nM]	GTPγS Opioid Receptor Kappa Emax (kappa opioid receptor [4]) [%]	EC50 (kappa opioid receptor [4]) [nM]
4-((endo)-8-(2,6-dimethylhept-4-yn-3-yl)-8-azabicyclo[3.2.1]octan-3-yl)-3-oxo-3,4-dihydroquinoxaline-2-carboxylic acid	–	–	740	–	–	–	–	–
4-((endo)-8-(6-methylhept-4-yn-3-yl)-8-azabicyclo[3.2.1]octan-3-yl)-3-oxo-3,4-dihydroquinoxaline-2-carboxylic acid	–	–	383	–	–	–	–	–
4-((endo)-8-((cis)-4-tert-butylcyclohexyl)-8-azabicyclo[3.2.1]octan-3-yl)-3-oxo-3,4-dihydroquinoxaline-2-carboxylic acid	–	–	1190	–	–	–	–	–
4-((endo)-8-((exo)-bicyclo[3.3.1]nonan-9-yl)-8-azabicyclo[3.2.1]octan-3-yl)-3-oxo-3,4-dihydroquinoxaline-2-carboxylic acid	1550	–	4.8	1030	1970	–	–	–
4-((endo)-8-((trans)-4-isopropylcyclohexyl)-8-azabicyclo[3.2.1]octan-3-yl)-3-oxo-3,4-dihydroquinoxaline-2-carboxylic acid	–	–	400	–	–	–	–	–
4-((endo)-8-((trans)-4-tert-butylcyclohexyl)-8-azabicyclo[3.2.1]octan-3-yl)-3-oxo-3,4-dihydroquinoxaline-2-carboxylic acid	–	–	962	–	–	–	–	–
4-((endo)-8-cycloheptyl-8-azabicyclo[3.2.1]octan-3-yl)-3-oxo-3,4-dihydroquinoxaline-2-carboxylic acid	–	–	1340	–	–	–	–	–
4-((endo)-8-cyclononyl-8-azabicyclo[3.2.1]octan-3-yl)-3-oxo-3,4-dihydroquinoxaline-2-carboxylic acid	469	–	2	396	1520	–	–	–
4-((endo)-9-cyclodecyl-9-azabicyclo[3.3.1]nonan-3-yl)-3-oxo-3,4-dihydroquinoxaline-2-carboxylic acid	565	104 ± 4.6	1.8	–	> 20000	11.6	3.3 ± 1.9	> 20000
4-((endo)-9-cyclooctyl-3-methyl-3,9-diazabicyclo[3.3.1]nonan-7-yl)-3-oxo-3,4-dihydroquinoxaline-2-carboxylic acid	–	–	3290	–	–	–	–	–
(2S)-2-(4-((endo)-8-cyclooctyl-8-azabicyclo[3.2.1]octan-3-yl)-3-oxo-3,4-dihydroquinoxalin-2-ylamino)-3-hydroxypropanoic acid	–	29 ± 2	8.2	–	–	19.1	–	–
(2S)-2-(4-((exo)-8-cyclooctyl-8-azabicyclo[3.2.1]octan-3-yl)-3-oxo-3,4-dihydroquinoxalin-2-yl amino)-3-hydroxypropanoic acid	–	–	285	–	–	–	–	–
(R)-2-(4-((endo)-8-cyclooctyl-8-azabicyclo[3.2.1]octan-3-yl)-3-oxo-3,4-dihydroquinoxalin-2-ylamino)succinic acid	–	–	437	–	–	–	–	–
endo-4-(8-adamantan-2-yl-8-aza-bicyclo[3.2.1]oct-3-yl)-3-oxo-3,4-dihydro-quinoxaline-2-carboxylic acid	3500	33.3 ± 2.2	89.9	–	–	271	–	–
endo-4-[8-(3-hydroxy-adamantan-1-yl)-8-aza-bicyclo[3.2.1]oct-3-yl]-3-oxo-3,4-dihydro-quinoxaline-2-carboxylic acid	–	–	912	–	–	–	–	–
endo-4-[9-(3,5-dimethyl-adamantan-1-yl)-9-aza-bicyclo[3.3.1]non-3-yl]-3-oxo-3,4-dihydro-quinoxaline-2-carboxylic acid	6870	–	38.1	4750	–	–	–	–
ethyl 4-((endo)-9-cyclooctyl-3-oxa-9-azabicyclo[3.3.1]nonan-7-yl)-3-oxo-3,4-dihydroquinoxaline-2-carboxylate	–	–	911	–	–	–	–	–
exo-4-(8-adamantan-1-yl-8-aza-bicyclo[3.2.1]oct-3-yl)-3-oxo-3,4-dihydro-quinoxaline-2-carboxylic acid	–	–	275	–	–	–	–	–
